{
  "source": "paper PMC8659078",
  "about": "“A Validated HPLC-PDA-HRMS Method to Investigate the Biological Stability and Metabolism of Antiparasitic Triterpenic Esters” (Molecules, 2021)",
  "assay": "Metabolites analysis by HPLC-PDA-HRMS after incubation with male mouse pooled microsomes",
  "type": "in vitro ADME",
  "conditions": "identification level 2",
  "data": [
    {"substance": "ursolic acid-3-O-phenyl propionate [UA-3-O-PP]", "values": [
      {"measurement": "metabolic reaction of detected metabolite", "setting": "15 µM", "result": "Hydrolysis + Hydroxylation + Reduction"},
      {"measurement": "metabolic reaction of detected metabolite", "setting": "150 µM", "result": "Hydrolysis + Hydroxylation + Reduction"}
    ]}
  ]
}
